US8501732B2, “Aminomethyl quinolone compounds” (Hoffmann-La Roche Inc., priority 2011, dated 2013)
Where a name gives a salt, the structure may show the parent alone.

Sequences of proteins named here, by UniProt entry; tags and fusion partners are left off. A change or cut given only in a name is not applied to a line headed by its entry.
UniProt P45983: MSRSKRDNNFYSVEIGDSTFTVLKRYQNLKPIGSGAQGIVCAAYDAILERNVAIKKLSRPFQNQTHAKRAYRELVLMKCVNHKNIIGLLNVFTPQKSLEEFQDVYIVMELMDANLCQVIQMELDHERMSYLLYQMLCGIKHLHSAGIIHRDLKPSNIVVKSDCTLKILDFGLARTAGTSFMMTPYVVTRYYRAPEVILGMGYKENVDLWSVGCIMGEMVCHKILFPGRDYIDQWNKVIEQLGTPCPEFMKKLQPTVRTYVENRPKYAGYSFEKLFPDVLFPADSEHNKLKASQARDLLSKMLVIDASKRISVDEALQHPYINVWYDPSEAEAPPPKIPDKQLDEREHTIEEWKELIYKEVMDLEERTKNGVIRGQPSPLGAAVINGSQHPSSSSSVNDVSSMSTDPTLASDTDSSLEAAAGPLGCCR

Target: JNK1 (Homo sapiens (Human), UniProt P45983)
Assay: In Vitro JNK1 Assay (TR-FRET, phosphorylation of GST-c-Jun)
Assay type: biochemical
Details: 0.2 nM active JNK1 kinase, 26.7 nM GST-c-Jun, 2 μM ATP, 30 min at room temperature
Description: Phosphorylation of GST-c-Jun protein (amino acid residues 1-79) was measured as JNK1 activity. […] The reaction buffer contained 50 mM HEPES, pH […], 1 mM DTT, 0.1 mM Na3VO4 and 0.2 mg/mL BSA. After 30 min. incubation at room temperature, the reaction was terminated by adding buffer containing 8 mM EDTA and a polyclonal anti-phospho-c-Jun antibody (Cell Signaling #9261L), followed by an additional incubation of 30 min. at room temperature. […] Time-resolved Fluorescence Resonance Energy Transfer (TR-FRET) signals were measured 1 hr. later on the EnVision reader (Perkin Elmer). Compound potency was assessed at 10 serially diluted concentrations. Percentage of inhibition at each concentration was determined to generate an IC50 value for each compound.

O=C(NCc1cn(-c2ccccc2)c2cc(Cl)ccc2c1=O)c1ccc(N2C[C@@H]3C[C@H]2CN3)nc1 (stereo in doubt) [Example I-89, trifluoroacetate]
IC50: 0.24 µM
